From article PMC5383082 (International Journal of Nanomedicine, 2017)

Key:
[1] = Pharmacokinetic analysis of plasma DOX after intravenous injection; type: in vivo, Kunming mice; details: mice, i.v.
[2] = Tissue distribution of DOX after intravenous injection; type: in vivo; details: mice, i.v. 5 mg/kg
In short: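 Male Kunming mice (~25 g, 6–8 weeks) received 5 mg/kg DOX equivalent intravenously. Heart, liver, spleen and kidney were collected at 30 min and 3 h. Tissue was homogenized in ethanol/HCl/water and centrifuged at 12,000 rpm for 15 min. DOX in the supernatant was measured by fluorescence spectrophotometry. n=4; mean ± SD.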

## folate-polyethylene glycol-immunoglobulin G-doxorubicin [FA-PEG-IgG-DOX]
[1]
  circulating time, times longer than FA-IgG-DOX: 2 times
[2]; 0.5 h
  DOX concentration in the liver at 0.5 h: slightly lower DOX concentration
[2]; 3 h versus 0.5 h
  change of DOX distribution in the liver at 3 h: increased DOX concentration
